Key:
[1] = system: benzodiazepine receptors ([3H]diazepam site); assay type: binding, rat
[2] = system: amphetamine-induced stereotypy; details: rat, in vivo

In the case of S=C=Nc1cccc(C2(N3CCCCC3)CCCCC2)c1 [Metaphit, 1-[1-(3-isothiocyanatophenyl)cyclohexyl]piperidine], the “activity toward the [3H]diazepam site” value [1] is reported as “inactive in all respects” and the “antagonism of amphetamine-induced stereotypy” value [2] is reported as “did not antagonize amphetamine-induced stereotypy”.
